Results published in US20020123080A1, “Inhibiting proliferation of cancer cells” (Tufts University, priority 1996, published 2002).

Test system: MCF-7 cells
Test: MCF-7 cell proliferation yield assay (nuclei counted after 4 days) with or without hormone
Assay type: cell-based, human
Details: 4 days in ITDME plus test preparation; nuclei counted on Coulter Counter; FIG. 4 dose response
Procedure: A clonal population of the human breast cancer MCF-7 cell line was used in some of the experiments described below. These cells were routinely grown in 5% fetal bovine serum (FBS) supplemented-Dulbecco's Modified Eagle's Medium (DME). Charcoal-dextran (CD) stripped serum-supplemented medium inhibits their proliferation and estradiol cancels this effect. Estrogen non-target, serum-insensitive human breast cancer MDA-MB231 cells (ATCC, Rockville, Md.) were used as controls; they were grown under the same conditions as MCF-7 cells.
To assess the inhibitory effect of serum or purified protein preparations, 4×10^4 cells/well were seeded in 12-well Falcon Multiplates in 5% FBS; they were allowed to attach for 24 h before exposing them to test medium. Cell proliferation yields were measured after 4 days in DME plus 25 ug transferrin (T)/ml and 100 ng insulin (I)/ml ([…]) alone, or ITDME plus CD human serum (CDHuS), or purified protein preparations. Each sample was tested in duplicate in the presence or absence of 100 pM estradiol (E2) and each experiment was repeated at least three times. Phenol red-free media were used in all experiments involving cell proliferation rates or yields. Cells were lysed and nuclei counted on a Coulter Counter Model ZM. Estrogens were removed from serum, HA (Sigma Chemical Co.; cat. no. A1887) and from rHA preparations by CD stripping. […]

“CDHA: human albumin (HA, Sigma cat. no. A1887) with estrogens removed by CD stripping” was tested, and the “inhibition of proliferation of MCF-7 cells” value was “inhibited the proliferation of MCF-7 cells in a dose-dependent manner”.

In the case of “rHA: recombinant human albumin from Delta Biotechnology Ltd., produced in yeast”, the “inhibition of proliferation of MCF-7 cells” value is reported as “inhibited the proliferation of these cells”.
